Experimental data: PubChem BioAssay AID529 (NMMLSC, 2006)
Only a part is listed here, and it is no random draw. Records with an inconclusive call do not appear. Active and inactive are the calls of the source.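 The calls were made as follows: active = inhibition above 50%; inconclusive = compound itself fluorescent, judged against control cell fluorescence; inactive = the rest.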

Amino acid sequences for entries named in this document (tags omitted).
UniProt P13612, whole entry, looked up: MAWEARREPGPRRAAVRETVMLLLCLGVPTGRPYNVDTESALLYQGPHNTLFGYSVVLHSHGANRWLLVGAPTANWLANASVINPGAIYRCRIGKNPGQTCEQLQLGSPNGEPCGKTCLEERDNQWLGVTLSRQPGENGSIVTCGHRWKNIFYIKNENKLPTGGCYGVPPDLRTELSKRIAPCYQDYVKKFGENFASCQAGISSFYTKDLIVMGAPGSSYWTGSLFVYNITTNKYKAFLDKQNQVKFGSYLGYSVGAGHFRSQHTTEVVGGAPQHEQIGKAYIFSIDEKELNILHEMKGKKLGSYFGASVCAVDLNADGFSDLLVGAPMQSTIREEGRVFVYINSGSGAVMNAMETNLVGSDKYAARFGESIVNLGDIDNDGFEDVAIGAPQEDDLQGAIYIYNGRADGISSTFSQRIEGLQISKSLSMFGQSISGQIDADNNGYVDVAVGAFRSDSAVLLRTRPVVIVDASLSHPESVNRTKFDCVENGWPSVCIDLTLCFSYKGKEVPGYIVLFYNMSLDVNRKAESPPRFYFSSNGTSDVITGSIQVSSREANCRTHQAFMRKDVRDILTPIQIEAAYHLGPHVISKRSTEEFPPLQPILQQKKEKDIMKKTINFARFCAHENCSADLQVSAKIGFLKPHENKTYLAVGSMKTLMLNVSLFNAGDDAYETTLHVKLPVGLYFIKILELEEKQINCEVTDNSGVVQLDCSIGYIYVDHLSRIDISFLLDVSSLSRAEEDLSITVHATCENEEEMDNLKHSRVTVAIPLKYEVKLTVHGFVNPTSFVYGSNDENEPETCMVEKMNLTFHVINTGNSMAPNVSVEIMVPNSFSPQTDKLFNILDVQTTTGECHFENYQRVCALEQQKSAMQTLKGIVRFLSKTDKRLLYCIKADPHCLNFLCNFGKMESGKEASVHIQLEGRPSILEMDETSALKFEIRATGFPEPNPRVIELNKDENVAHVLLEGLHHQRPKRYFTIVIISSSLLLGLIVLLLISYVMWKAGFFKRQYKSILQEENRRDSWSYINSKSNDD

These compounds were tested against Integrin alpha-4 (Homo sapiens) (UniProt P13612) (assay: inhibitors of LDV-FITC binding to Mn2+-activated VLA-4, primary screen, Jurkat cells (AID 529;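 also: 0% = Mn2+ stimulated cells lacking compound and 100% = ligand binding without Mn2+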)). Conditions: LDV-FITC binding with Mn2+, flow cytometry, stronger effect = higher value, screened at 10 µM (by protocol), 100% = Mn2+-driven binding gain fully reversed.

Row | Compound | inhibition
1 | N#CC1(Nc2ccccc2)CCN(CCc2ccccc2)CC1 | inactive: 3%
2 | Fc1ccccc1NC1CCN(Cc2ccccc2)CC1 | inactive: -22%
